The values that follow come from patent US20260256822A1, “ENTRY-MODULATING AGENTS AND USES THEREFOR” (priority 2022, published 2026).

Chains of the proteins cited; added tags and fusions are not shown. Residues count along the entry.
UniProt Q8IFM8, 29-362: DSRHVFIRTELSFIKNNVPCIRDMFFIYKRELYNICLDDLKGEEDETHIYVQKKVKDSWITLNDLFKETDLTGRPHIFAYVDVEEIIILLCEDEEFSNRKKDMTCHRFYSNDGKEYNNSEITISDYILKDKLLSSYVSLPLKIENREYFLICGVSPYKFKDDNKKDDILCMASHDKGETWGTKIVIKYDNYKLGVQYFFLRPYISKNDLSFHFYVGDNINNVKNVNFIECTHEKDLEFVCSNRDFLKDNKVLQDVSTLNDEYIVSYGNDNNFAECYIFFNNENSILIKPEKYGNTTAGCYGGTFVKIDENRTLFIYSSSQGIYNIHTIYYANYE

For this experiment, the target named is PfCyRPA (Plasmodium falciparum, UniProt Q8IFM8).

Regarding Epimametcin, the Kd (as a rule, the equilibrium constant for the complex coming apart) was found to be 3.04 ± 0.506 µM. The result for Selameticin reads 1.2 ± 0.202 µM.
